# Measured affinities in a library of Ab-14 heavy chain variants

Target peptide (SARS-CoV-2 spike, HR2 region): PDVDLGDISGINAS

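The parent was found by panning a naive human phage display library on the peptide. The variants were designed computationally from a first round of random CDR variants and then made and measured. Their group label is 14H_GPLM_Gen (GPLM: also part of the Gaussian process libraries; Gen: genetic algorithm; a sequence that several methods proposed may carry one label only). In AlphaSeq, yeast of one mating type display the scFv and yeast of the other type display the target. Mating (16 h, 30 °C) was followed by selection of diploids and sequencing of their barcodes. Each replicate has its own calibration line, from reference interactions of the BCL2 family. There are six technical replicates.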

The variants keep the light chain, the linker and the frameworks of Ab-14 (scFv order VH, three GGGGS repeats, VL).
VH: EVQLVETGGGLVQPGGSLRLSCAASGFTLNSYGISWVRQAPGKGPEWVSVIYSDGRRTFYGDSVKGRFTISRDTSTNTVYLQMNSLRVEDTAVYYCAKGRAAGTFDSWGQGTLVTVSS
VL: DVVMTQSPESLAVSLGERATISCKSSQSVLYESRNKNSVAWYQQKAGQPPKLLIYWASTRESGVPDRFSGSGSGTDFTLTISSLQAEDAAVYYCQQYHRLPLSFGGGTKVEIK

Positions count from residue 1 of the parent VH; T28S puts S in place of T.
Affinities are written as log10 Kd with Kd in nM; a lower number is a better binder.
Averages over replicates are reported, and they cover detected replicates only.
"n.d." marks a missing value. The strain was present, yet no cells mated with the target were sequenced in that replicate, which points to weak or no binding.
In the paper, a design with two or fewer of six values counts as a poor binder.
Values of this round are not directly comparable with the first-round values of the same sequences.
Nonspecific signal, from three strains lacking the peptide, appeared in 1% of pairings of all heavy chain designs, centred on 2.08 (5% of these signals below 0.84); values are not corrected for it. The control count says in how many pairings with the empty strains this scFv gave a signal, with their mean in brackets.

changes,"log10 Kd, replicates","log10 Kd (nM), mean",signal with controls
T28S G61A A101T S107F,1.38 0.32 0.25 0.30 0.37 0.52,0.53,0 of 18
T28D R100E S107K,1.09 0.72 0.14 1.07 0.51 0.79,0.72,1 of 18 (1.80)
T28S A101T S107E,0.40 0.67 0.15 0.17 0.21 0.13,0.29,0 of 18
T28S R100E S107K,0.55 0.57 0.78 0.54 0.35 0.48,0.54,0 of 18
S31N S53A R100Q,0.11 -0.14 -0.13 -0.42 -0.01 -0.06,-0.11,1 of 18 (2.03)
T28D R100K S107V,-0.19 -0.23 -0.32 0.26 0.43 0.10,0.01,0 of 18
G61Q A101E S107T,n.d. n.d. n.d. n.d. n.d. n.d.,n.d.,0 of 18
T28S S31E S107Q,0.33 0.36 -0.06 0.02 -0.07 0.06,0.11,1 of 18 (2.14)
T28E G61L A101T,0.78 0.00 0.05 0.29 0.03 0.48,0.27,0 of 18
G26K G61S R100E,1.00 1.48 2.03 2.00 1.25 1.94,1.62,0 of 18
G26H T28N G61A A101T,0.28 0.44 0.34 0.24 0.50 0.49,0.38,1 of 18 (1.64)
T28S R100W S107L,0.55 n.d. n.d. n.d. 2.24 1.07,1.29,0 of 18
N30E S53A G61A,0.08 -0.28 -0.32 -0.45 -0.51 -0.34,-0.30,0 of 18
R100Q A101V S107T,1.01 2.33 1.32 0.80 0.79 0.82,1.18,0 of 18
T28D G61S A101T,0.05 -0.24 0.11 -0.27 0.17 -0.21,-0.07,1 of 18 (0.86)
N30D G61V A101T,1.33 n.d. n.d. n.d. 0.41 0.76,0.83,0 of 18
T28D G61A A101E,0.74 0.80 0.12 -0.40 0.34 0.05,0.28,0 of 18
T28S G61T R100Q,0.33 0.20 0.57 0.00 0.10 0.57,0.30,0 of 18
T28S S31E A101E S107K,-0.24 -0.38 -0.40 -0.69 -0.37 -0.43,-0.42,1 of 18 (4.03)
T28D G61A S63N A101T,0.10 -0.45 0.01 -0.44 0.09 -0.22,-0.15,0 of 18
T28N A101S,n.d. 1.20 n.d. n.d. 0.51 n.d.,0.85,0 of 18
T28Q A101T,n.d. n.d. n.d. n.d. n.d. n.d.,n.d.,0 of 18
T28S S53A R100M,-0.43 -0.56 -0.07 -0.35 -0.49 -0.18,-0.35,0 of 18
T28H G61A R100Q,1.60 0.58 1.13 0.78 0.43 1.35,0.98,0 of 18
T28S N30E G61A,0.58 0.35 0.45 0.16 -0.16 0.21,0.26,0 of 18
T28E G61V R100Q A101T,1.83 0.74 0.93 1.19 0.58 0.91,1.03,1 of 18 (2.30)
T28S G61A,0.86 0.48 0.85 0.00 0.66 0.29,0.52,0 of 18
T28S S31E A101I,-0.95 -0.39 -0.68 -0.33 -0.51 -0.67,-0.59,0 of 18
T28S G61A R100S A101Q,-0.18 0.01 0.51 0.09 0.09 0.82,0.22,0 of 18
T28N G61A R100A,0.29 0.45 0.77 0.43 0.55 0.57,0.51,1 of 18 (4.88)
T28E S53A G61A R100Q,0.02 -0.39 -0.70 -0.18 -0.60 -0.21,-0.34,0 of 18
S31D G61I A101Q,0.32 1.21 0.12 0.78 0.44 0.34,0.54,0 of 18

Extract of 3 entries:

{"changes": "T28S R100W S107L", "log10 Kd, replicates": "0.55 n.d. n.d. n.d. 2.24 1.07", "log10 Kd (nM), mean": "1.29", "signal with controls": "0 of 18"}
{"changes": "T28S G61A R100S A101Q", "log10 Kd, replicates": "-0.18 0.01 0.51 0.09 0.09 0.82", "log10 Kd (nM), mean": "0.22", "signal with controls": "0 of 18"}
{"changes": "T28S G61A A101T S107F", "log10 Kd, replicates": "1.38 0.32 0.25 0.30 0.37 0.52", "log10 Kd (nM), mean": "0.53", "signal with controls": "0 of 18"}

Data: MIT Lincoln Laboratory AlphaSeq set, Li et al. 2023, doi:10.1038/s41467-023-39022-2, as distributed in FLAb.